The source made the active and inactive calls. No rule for the calls is given here.
Biological target: Peptidyl-prolyl cis-trans isomerase FKBP1A (Homo sapiens) (UniProt P62942)
Test: FKBP12 binders, biophysical, NMR detection (AID 608)
Conditions: NMR binding, purified FKBP12

By UniProt entry, the sequences of proteins in these tests, tags left out.
UniProt P62942, whole entry, looked up: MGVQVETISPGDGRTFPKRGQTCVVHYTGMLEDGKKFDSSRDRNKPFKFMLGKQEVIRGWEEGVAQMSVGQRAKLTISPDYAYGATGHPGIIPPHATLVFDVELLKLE

**Q.** With `Cc1c2non([O-])c-2c(C)[n+](=O)[n+]1[O-]` as the compound, how does the Kd read?
**A.** inactive
